Here are results for three molecules from US20080269114A1 (7TM PHARMA A S, published 2008).

Chains of the proteins cited; added tags and fusions are not shown. Lines headed by an entry give the natural chain unless they say otherwise; changes in a name come on top.
UniProt P50391: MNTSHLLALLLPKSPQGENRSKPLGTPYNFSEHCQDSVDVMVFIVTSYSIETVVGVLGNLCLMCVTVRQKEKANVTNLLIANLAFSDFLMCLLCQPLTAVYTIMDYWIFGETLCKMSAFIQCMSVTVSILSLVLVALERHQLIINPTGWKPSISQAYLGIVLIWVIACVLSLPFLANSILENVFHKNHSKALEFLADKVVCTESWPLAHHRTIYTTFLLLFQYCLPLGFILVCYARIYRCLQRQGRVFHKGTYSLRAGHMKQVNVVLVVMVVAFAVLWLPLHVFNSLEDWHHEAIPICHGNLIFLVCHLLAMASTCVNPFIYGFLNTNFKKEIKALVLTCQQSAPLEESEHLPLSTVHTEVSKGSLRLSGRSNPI

The target of experiment [1] is T1, human Y4 receptor (human, UniProt P50391 1-375).
T1 construct: whole, on cells; also called PP receptor
The experiment is described as follows: competition binding, displacement of 125I-PP, COS-7 cells with human Y4. (In a radioligand displacement assay an active substance lowers the binding of a labelled ligand.)

For experiment [2], the target named is T1, human Y4 receptor. The experiment can be described thus: cell-based or functional assay.

B1: [CTRPRY-amide]x2 homo-dimer (peptide)
peptide: CTRPRY
modifications: C-terminal amide; disulfide bridge between the Cys residues of the two chains
notes: also called [CTRPRY-amide]×2
Regarding B1, the IC50 (as a rule, the point on the concentration scale where inhibition reaches its midpoint) with human Y4 receptor [1] turned out to be 29 nM.

B2: [His34]PP (peptide)
peptide: APLEPVYPGDNATPEQMAQYAADLRRYINMLTRHRY
modifications: chain 1 pos 36: C-terminal Tyr carboxyamide (CONH2)
On to B2, for which the “EC50, inositol phosphate turnover” value with human Y4 receptor [2] was 1.2 nM.

B3: [CLTRPRY-amide]x2 homo-dimer (peptide)
peptide: CLTRPRY
modifications: C-terminal amide; disulfide bridge between the Cys residues of the two chains
notes: also called [CLTRPRY-amide]×2
As to B3, the IC50 in the experiment with human Y4 receptor [1] came to 1.3 nM. This counts as single-digit nanomolar.
